Experimental data reported in ChEMBL document CHEMBL6074665, “Discovery of Anthranilic Acid Derivatives as Antagonists of the Pro-Inflammatory Orphan G Protein-Coupled Receptor GPR17” (J Med Chem, 2024).

Sequences of proteins named here, by UniProt entry; tags and fusion partners are left off.
UniProt Q13304, whole entry: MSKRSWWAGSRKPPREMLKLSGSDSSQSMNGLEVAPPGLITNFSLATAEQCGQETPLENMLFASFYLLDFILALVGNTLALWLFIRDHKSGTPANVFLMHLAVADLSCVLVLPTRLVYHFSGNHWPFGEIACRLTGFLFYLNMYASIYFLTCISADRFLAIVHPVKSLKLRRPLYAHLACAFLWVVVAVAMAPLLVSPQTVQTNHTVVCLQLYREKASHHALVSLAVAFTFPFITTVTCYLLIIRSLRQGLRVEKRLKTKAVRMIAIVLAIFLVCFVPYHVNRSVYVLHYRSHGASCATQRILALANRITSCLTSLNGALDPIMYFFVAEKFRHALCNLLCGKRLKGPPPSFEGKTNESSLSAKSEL

Target: Uracil nucleotide/cysteinyl leukotriene receptor (Homo sapiens, UniProt Q13304)
Assay: Antagonist activity at recombinant GPR17 (unknown origin) assessed as inhibition of calcium mobilization at 5 uM by fluorescence-based calcium mobilization assay relative to control
Format: functional
Conditions: filed as antagonist

Compound: CCc1ccc(-n2nnnc2/C=C/Nc2ccccc2C(=O)O)cc1
- inhibition: 65%
